Measurements: patent publication US8765727B2, “Macrocyclic compounds and their use as kinase inhibitors” (Incyte Corporation, priority 2009, dated 2014)

Protein sequences, listed by entry. Tags and fused reporters are not part of them. Residues count along the entry.
UniProt P52333, 781-1124: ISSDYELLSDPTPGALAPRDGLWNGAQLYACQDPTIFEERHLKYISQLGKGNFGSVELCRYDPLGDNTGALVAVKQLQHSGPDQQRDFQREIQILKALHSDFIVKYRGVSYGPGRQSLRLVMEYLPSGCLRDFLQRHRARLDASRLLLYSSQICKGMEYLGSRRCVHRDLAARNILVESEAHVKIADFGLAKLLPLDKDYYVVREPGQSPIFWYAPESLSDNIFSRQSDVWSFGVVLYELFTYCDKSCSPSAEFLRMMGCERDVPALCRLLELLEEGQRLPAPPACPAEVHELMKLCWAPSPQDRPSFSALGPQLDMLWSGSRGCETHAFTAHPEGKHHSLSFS

Columns and labels:
[1] = molecular target: human JAK1 (a.a. 837-1142) catalytic domain (Homo sapiens, UniProt P23458); assay: In vitro JAK kinase assay (HTRF), JAK1; format: biochemical; details: 90 μM ATP, 500 nM peptide, room temperature 1 hr
Procedure: (§1) One or more compounds herein were tested for inhibitory activity of JAK targets according to the following in vitro assay described in Park et al., Analytical Biochemistry 1999, 269, 94-104. The catalytic domains of human JAK1 (a.a. 837-1142), JAK2 (a.a. 828-1132) and JAK3 (a.a. 781-1124) with an N-terminal His tag were expressed using baculovirus in insect cells and purified. The catalytic activity of JAK1, JAK2 or JAK3 was assayed by measuring the phosphorylation of a biotinylated peptide. The phosphorylated peptide was detected by homogenous time resolved fluorescence (HTRF). […] The ATP concentration in the reactions was 90 μM for JAK1, 30 μM for JAK2 and 3 μM for JAK3. Reactions were carried out at room temperature for 1 hr and then stopped with 20 μL 45 mM EDTA, 300 nM SA-APC, 6 nM Eu-Py20 in assay buffer (Perkin Elmer, Boston, Mass.). Binding to the Europium labeled antibody took place for 40 minutes and HTRF signal was measured on a Fusion plate reader (Perkin Elmer, Boston, Mass.).

[2] = molecular target: human JAK3 (a.a. 781-1124) catalytic domain (Homo sapiens (Human), UniProt P52333); assay: In vitro JAK kinase assay (HTRF), JAK3; format: biochemical; details: 3 μM ATP, 500 nM peptide, room temperature 1 hr
Procedure: as §1

IC50 [1]: 15 nM
IC50 [2]: 15 nM
SMILES: Clc1cnc2nc1NCc1cc(Br)cc(c1)OCCCc1cccc(c1)N2 [Example 16, 12-Bromo-6-chloro-15-oxa-2,4,8,25-tetraazatetracyclo[17.3.1.1(3,7).1(10,14)]pentacosa-1(23),3(25),4,6,10(24),11,13,19,21-nonaene]
